From patent US20240254218A1, “COMPOSITIONS AND METHODS FOR TREATING NEURODEGENERATIVE DISEASES BY INHIBITING FSH” (ICAHN SCHOOL OF MEDICINE AT MOUNT SINAI, priority 2021, published 2024)

How the values were obtained:
3xTg;Cebpb^+/− mice = test: FSH treatment of 3xTg and 3xTg;Cebpb+/- mice; format: in vivo, mouse
Description: 3xTg mice were obtained from Jackson Laboratory (stock #34830). The mice harbor a human transgene with mutated APP^K670N/M671L and MAPT^P301L, and a knock-in mutation Psen1^M146V and display AD neuropathology and cognitive decline at about 3 to 4 months (Oddo, S. et al. Neuron 39, 409-421, (2003)), which is known to be accelerated upon ovariectomy. Mutant Cebpb mice (Sterneck, E., et al. Genes Dev 11, 2153-2162, (1997)) were maintained at Emory University as heterozygotes on C57BL/6 and 129Sv backgrounds. The two strains were crossed to generate viable F1 hybrid wild type and Cebpb^+/− littermates; the latter were then crossed with 3xTg mice to generate compound 3xTg;Cebpb^+/− and 3xTg;Cebpb^+/− mutants. APP/PS1 mice, which were generated and bred at Mount Sinai, harbor a human transgene comprising APPK^670N/M671L and PSEN1^ΔE9 (Minkeviciene, R. et al. J Neurochem 105, 584-594, (2008)). […] These mice, when bred on a pure C57BL/6J background, show evidence of sudden death due to seizure activity (Minkeviciene, R. et al. J Neurosci 29, 3453-3462, (2009)). Animal care and handling were performed according to NIH animal care guidelines at both Emory and Mount Sinai. The protocols were reviewed and approved by the respective Institutional Animal Care and Use Committees.
Compound 3xTg;Cebpb^+/− mutants were generated on a C57BL/6 background by crossing 3xTg with Cebpb^+/− mice. 2.5- to 3-month-old compound mutants were treated with recombinant human FSH (5 IU/mouse) daily for 3 months. Of note is that Cebpb-mice were not utilized due to a potentially confounding metabolic phenotype (Millward, C. A. et al. Diabetes 56, 161-167, (2007)). […] Likewise, FSH-induced Cebpb, Lgmn, App and Mapt expression was attenuated in 3xTg;Cebpb^+/− mice compared with 3xTg littermates (FIG. 13A).

3xTg mice [1] = test: Morris Water Maze, FSH-injected 3xTg mice; format: in vivo, mouse; details: following FSH injection
Description: N=7 mice/group, two-tailed Student's t-test, *P<0.05, **P<0.01.
Mice were trained in a round, water-filled tub (52 inch diameter) in an environment rich with extra maze cues as described previously. Each subject was given 4 trials/day for 5 consecutive days with a 15-min inter-trial interval. […] Following the 5 day of task acquisition, a probe trial was presented during which time the platform was removed and the percentage of time spent in the quadrant which previously contained the escape platform during task acquisition was measured over 60 sec. All trials were analyzed for latency by means of MazeScan (Clever Sys, Inc.).

FSHR = test: Time course of FSH effects on signalling (Western); format: cell-based
Description: Statistics: mean±SEM; three biological replicates; one-way ANOVA; *P<0.05, **P<0.01.
To explore downstream consequences of FSHR stimulation, the effect of FSH on the phosphorylation of ERK1/2, SRPK2 and AKT was studied. Of note, MAPK-induced phosphorylation of residue T188 of C/EBPβ regulates its transcriptional activity (Ramji, D. P. & Foka, P. Biochem J 365, 561-575, (2002)). Likewise, AKT phosphorylates SRPK2, which, in turn, activates AEP by phosphorylating residue S266. […] Inhibitors of each pathway were utilized, including pertussis toxin that decouples the bone and adipose tissue FSHRs from Gααi protein (Liu, P. et al. Nature 546, 107-112, (2017); Sun, L. et al. FSH directly regulates bone mass. Cell 125, 247-260, (2006)). Pertussis toxin inhibited FSH-induced C/EBPβ and AEP activation and AKT phosphorylation (FIG. 2E). […] Furthermore, the AKT inhibitor AKTi-1/2 attenuated the induction by FSH of C/EBPβexpression, AEP cleavage and phosphorylation, and phosphorylation of the downstream target SRPK2, but not ERK1/2 (FIG. 2E). In contrast, while the MEK1 inhibitor PD98059 blocked FSH-induced C/EBPβ, AEP and SRPK2 activation, AKT was unaffected (FIG. 2E).

[2] = tested on: C/EBPβ-AEP/δ-secretase pathway; test: FSH stimulation of SH-SY5Y cells (Western, qPCR, AEP activity); format: cell-based, human
Description: The human neuroblastoma cell line SH-SY5Y, obtained from ATCC, was cultured in DMEM/F12 with 10% fetal bovine serum (FBS), penicillin (100 units/ml) and streptomycin (100 μg/ml). SH-SY5Y transfection was performed using Lipofectamine 3000 (Invitrogen). Primary culture of rat cortical neurons was described earlier. LV-shCebpb-GFP, LV-GFP and AAV-AEP^C189S were packaged by Viral Vector Core (VVC) of Emory University. 2 μl of virus solution was added to 1 ml culture medium and applied to primary neuron cultures. Cells were incubated at 37° C. in a humidified atmosphere of 5% CO2.
(§1) Tissue homogenates or cell lysates (10 μg) were incubated in 200 μl assay buffer (20 mM citric acid, 60 mM Na2HPO4, 1 mM EDTA, 0.1% CHAPS, and 1 mM DTT, pH 6.0) containing 20 μM δ-secretase substrate, Z-Ala-Ala-Asn-AMC (Bachem). AMC released by substrate cleavage was quantified by measuring at 460 nm in a fluorescence plate reader at 37° C. in kinetic mode.
(§2) mRNA levels were analyzed by quantitative PCR (qPCR). Briefly, RNA was isolated by TRIzol (Life Technologies). Reverse transcription was performed with SuperScript III reverse transcriptase (Life Technologies). Gene-specific primers and probes were designed and bought from Taqman (Life Technologies). All qPCR reactions were performed using the ABI 7500-Fast Real-Time PCR System and the Taqman Universal Master Mix Kit (Life Technologies). The relative quantification of gene expression was calculated using the ΔΔCt method.
(§3) Cells and brain tissue were washed with ice-cold PBS and lysed in (50 μmM Tris-HCl, pH 7.4, 40 mM NaCl, 1 mM EDTA, 0.5% Triton X-100, 1.5 mM Na3VO4, 50 mM NaF, 10 mM sodium pyrophosphate, 10 mM sodium β-glycerophosphate, supplemented with protease inhibitors cocktail) at 4° C. for 0.5 hours, and centrifuged for 25 min at 15,000 rpm. The supernatant was boiled in SDS loading buffer. After SDS-PAGE, the samples were transferred to a nitrocellulose membrane. The membrane was blocked with TBS containing 5% nonfat milk and 0.1% Tween 20 (TBST) at room temperature for 2 hours, followed by incubation with primary antibody at 4° C. overnight, and with the secondary antibody at room temperature for 2 hours. After washing with TBST, the membrane was developed using the enhanced chemiluminescent (ECL) detection system.
To study whether FSH acts on the brain FSHR to activate the C/EBPβ-AEP/δ-secretase pathway, human recombinant FSH (30 ng/ml) was used to stimulate human neuroblastoma SH-SY5Y cells.

3xTg mice [3] = test: Electrophysiology of long-term potentiation, FSH-injected 3xTg mice; format: in vivo, mouse
Description: Traces are representative field excitatory post-synaptic potentials (fEPSPs) recorded before (black) and 60 min after (red) Tris-buffered saline (TBS). Mean±SEM, N=3, **P<0.01, two-way ANOVA and Bonferroni's posthoc test.
Mice were anaesthetized with isoflurane, decapitated, and their brains dropped in ice-cold artificial cerebrospinal fluid (a-CSF) containing 124 mM NaCl, 3 mM KCl, 1.25 mM NaH2PO4, 6.0 mM MgCl2, 26 mM NaHCO3, 2.0 mM CaCl2, and 10 mM glucose. Hippocampi were dissected and cut into 400-mm thick transverse slices with a vibratome. After incubation at 23-24° C. in a-CSF for 60 to 90 min, slices were placed in a recording chamber (RC-22C, Warner Instruments) on the stage of an upright microscope (Olympus CX-31) and perfused at a rate of 3 mL per min with a-CSF (containing 1 mM MgCl2) at 23 to 24° C. A 0.1 MU tungsten monopolar electrode was used to stimulate the Schaffer collaterals. The field excitatory post-synaptic potentials (fEPSPs) were recorded in CA1 stratum radiatum by a glass microelectrode filled with a-CSF with resistance of 3-4 MU. The stimulation output (Master-8; AMPI, Jerusalem) was controlled by the trigger function of an EPC9 amplifier (HEKA Elektronik, Lambrecht, Germany). fEPSPs were recorded under current-clamp mode. […] The magnitudes of LTP are expressed as the mean percentage of baseline fEPSP initial slope.

3xTg mice [4] = test: FSH injection in ovariectomized, estrogen-replete 3xTg mice; format: in vivo, mouse
Description: 3xTg mice were ovariectomized at 3 months and supplemented with 17β-estradiol using 90-day-release pellets (E2, 0.36 mg) to render them biochemically eugonadal. The mice were randomly divided to be injected with PBS (OVX+E2+PBS) or recombinant human FSH (5 IU per mouse daily, i.p.) for 3 months (OVX+E2+FSH). N=4, two-tailed Student's t-test, *P<0.05, **P<0.01.
Given that FSH increases serum estrogen, mice were ovariectomized and serum estrogen levels were clamped close to basal (˜75 μg/ml) by subcutaneously implanting 17β-estradiol 90-day-release-pellets (0.36 mg) before FSH (5 IU daily, i.p.) injections for 3 months (FIG. 12A). […] This experiment provides unequivocal evidence that the effect of FSH is independent of estrogen.

3xTg mice [5] = test: Systemic recombinant human FSH injection in 3xTg mice: neuropathology; format: in vivo, mouse
Description: as §1, §2, §3
Free-floating 25-am brain sections were used for immunostaining. For immunohistochemistry, brain sections were treated with 0.3% H2O2 for 10 minutes. Sections were washed three times in PBS and blocked in 1% BSA and 0.3% Triton X-100 for 30 min, followed by overnight incubation with anti-AP antibody (1:400), and AT8 (1:200) at 4° C. Signal was developed using Mouse and Rabbit Specific HRP/DAB (ABC) Detection IHC kit (Abcam). For immunofluorescence staining, sections were incubated overnight at 4° C. with primary Aβ (1:400), APPC586 (1:200), AT8 (1:200) or Taul-368 (1:600) antibodies. After washing with Tris-buffered saline, sections were incubated with a mixture of Alexa Fluor 488- and 594-coupled secondary antibodies (Invitrogen) for detection. DAPI (1 μg/mL) (Sigma) was used for staining nuclei. Images were acquired with an Olympus Confocal FV1000 Imaging System.
Brain sections (25 μm) were incubated in 5% periodic acid for 5 min, washed in water, and then placed in alkaline silver iodide solution (containing 1% silver nitrate) for 1 min. The sections were then washed in 0.5% acetic acid for 10 min, placed in developer solution for 15 min, and washed with 0.5% acetic acid and then with water. The sections were treated with 0.1% gold chloride for 5 min, washed in water, and incubated in 1% sodium thiosulfate (hypo) for 5 min before a final washing.
Amyloid plaques were stained with Thioflavin-S. Free-floating 25-μm brain sections were incubated in 0.25% potassium permanganate solution for 20 min, rinsed in distilled water, and incubated in bleaching solution containing 2% oxalic acid and 1% potassium metabisulfite for 2 min. After rinsing in distilled water, the sections were transferred to blocking solution containing 1% NaOH and 0.9% H2O2 for 20 min. The sections were incubated for 5 sec in 0.25% acetic acid, washed in distilled water, and stained for 5 min with 0.0125% thioflavin-S in 50% ethanol. The sections were washed with 50% ethanol, placed in distilled water, covered with a glass cover using mounting solution, and examined under a fluorescence microscope.
Mouse brains were fixed in 10% formalin for 24 h and then immersed in 3% potassium bichromate for 3 days in the dark. […]

[6] = 3xTg mice, FSH 5 IU/mouse daily, 3 months
[7] = FSH 30 ng/ml, time-dependent, Western
[8] = estrogen-replete (eugonadal) mice

FSH: human recombinant follicle-stimulating hormone, a glycoprotein polypeptide hormone
Aβ and pTau signals in the hippocampus (immunohistochemistry) (3xTg;Cebpb^+/− mice; 3xTg mice): enhanced | dendritic spine numbers upon FSH treatment (3xTg;Cebpb^+/− mice; 3xTg mice): marked decrements | AEP/δ-secretase activity (3xTg;Cebpb^+/− mice; [6]): markedly increased | accumulation of APP^1-373 APP^1-585, Tau^1-368 and pTau (3xTg;Cebpb^+/− mice; [6]): led to the accumulation | Aβ and pTau signals in the hippocampus (immunohistochemistry) (3xTg;Cebpb^+/− mice; 3xTg;Cebpb^+/− mice): sharply reduced | all responses to FSH (AEP activity, APP/Tau fragments, pTau) (3xTg;Cebpb^+/− mice; 3xTg;Cebpb^+/− mice): attenuated | FSH-induced Cebpb, Lgmn, App and Mapt expression (3xTg;Cebpb^+/− mice; 3xTg;Cebpb^+/− mice compared with 3xTg littermates): attenuated | latency to mount the platform (3xTg mice [1]): increased | time spent in the target quadrant (3xTg mice [1]): reduced | total C/EBPβ, pC/EBPβ, and active AEP (FSHR; from 5 minutes post-FSH exposure): progressively increase | NF-κB p65 (FSHR; post-FSH exposure): delayed elevation | time of peak ERK1/2, AKT and SRPK2 phosphorylation (FSHR; post-FSH exposure): ~30 min | expression of pro-inflammatory cytokines IL1β, IL-6 and TNFα ([2]; FSH): induced | AEP activity ([2]; FSH 30 ng/ml): enhanced | cleavage of APP and Tau to APP^1-585 and Tau^1-368 ([2]; FSH 30 ng/ml, Western): cleaved both APP and Tau | Cebpb, Lgmn, App and Mapt mRNA ([2]; FSH 30 ng/ml, quantitative PCR): time-dependent increases | cleaved (active) AEP [2, 7]: increased | total and phosphorylated C/EBPβ [2, 7]: increased | fEPSP in the CA1 hippocampal region (long-term potentiation) (3xTg mice [3]): reduced | C/EBPβ and AEP expression, cleavage of APP and Tau, and Tau phosphorylation (3xTg mice [4]; clamped estrogen levels, FSH 5 IU daily i.p., 3 months): continued to induce | AEP/δ-secretase activation (3xTg mice [4]; [8]): induced | Aβ and pTau accumulation (3xTg mice [4]; [8]): led to Aβ and pTau accumulation | apoptosis in hippocampal and cortical neurons (3xTg mice [5]; FSH 5 IU/mouse daily, 3 months): triggered marked apoptosis | cleavage of APP and Tau to APP^1-373, APP^1-585 and Tau^1-368, and phosphorylated Tau (3xTg mice [5]; FSH 5 IU/mouse daily, 3 months): induced | dendritic spine and synapse numbers in the hippocampus (3xTg mice [5]; FSH 5 IU/mouse daily, 3 months): reduced | pTau and Aβ, and both Aβ40 and Aβ42 isoforms (3xTg mice [5]; FSH 5 IU/mouse daily, 3 months): induced | C/EBPβ and AEP in 3xTg brains (3xTg mice [5]; FSH 5 IU/mouse daily, 3 months, vs PBS): marked increase | Cebpb, Lgmn, App, and Mapt mRNA expression (3xTg mice [5]; both sexes): increased | plaque formation (thioflavin staining, silver staining) (3xTg mice [5]; hippocampal sections, cortex, CA1 and dentate gyrus): plaque formation confirmed
